In article PMC4734386 (The Journal of organic chemistry, 2015):

Target: T1, human neutrophil elastase (HNE) (Homo sapiens, UniProt P08246)
T1 sequence (P08246 30-267): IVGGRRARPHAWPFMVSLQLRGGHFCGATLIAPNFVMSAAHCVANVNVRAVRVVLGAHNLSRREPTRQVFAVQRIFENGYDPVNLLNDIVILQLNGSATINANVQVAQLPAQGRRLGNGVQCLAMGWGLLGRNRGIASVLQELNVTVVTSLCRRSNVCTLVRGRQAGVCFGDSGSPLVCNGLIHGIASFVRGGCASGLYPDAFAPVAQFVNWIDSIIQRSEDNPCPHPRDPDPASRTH
Assay: HNE enzyme assay
Assay type: biochemical

Which IC50 does the source give for `CC(C)(C)C(=O)Oc1ccc(S(=O)(=O)Nc2ccccc2C(=O)NCC(=O)O)cc1` [sivelestat] here?
The IC50 was 123 nM.
